Test results published in publication PMC12680189, “Aotaphenazine, a rare hydrophenazine, targets topoisomerase II with anticancer efficacy: In silico to in vitro evidence” (PLOS One, 2025).

Target: Topoisomerase II (Topo II)
Assay: ELISA-based Topo II inhibition assay kit (Abcam), recombinant human enzyme, colorimetric
Assay type: biochemical

## COc1cccc2c1C(=O)c1c(O)c3c(c(O)c1C2=O)C[C@@](O)(C(=O)CO)C[C@@H]3O[C@H]1C[C@H](N)[C@H](O)[C@H](C)O1 [DOX, doxorubicin]
  IC50: 30.2 nM
